This passage reports inhibition results from patent US10251889B2, “Substituted pyrazolo[1,5-a]pyrimidine compounds as Trk kinase inhibitors” (Array BioPharma, Inc., priority 2009, dated 2019).

Sequences of proteins named here, by UniProt entry; tags and fusion partners are left off. Residues count along the entry.
UniProt O60674, 808-1132: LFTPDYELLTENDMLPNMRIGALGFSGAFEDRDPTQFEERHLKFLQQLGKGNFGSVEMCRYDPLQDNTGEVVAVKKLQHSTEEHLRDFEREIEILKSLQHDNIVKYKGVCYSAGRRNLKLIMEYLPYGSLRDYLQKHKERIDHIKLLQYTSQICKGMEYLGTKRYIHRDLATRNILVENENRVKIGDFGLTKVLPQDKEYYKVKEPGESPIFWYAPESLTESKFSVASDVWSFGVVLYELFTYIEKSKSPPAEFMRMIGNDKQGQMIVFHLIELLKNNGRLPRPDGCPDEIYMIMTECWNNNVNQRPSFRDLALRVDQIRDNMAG

In this assay the target is Jak2 (human Jak2 kinase domain, amino acids 808-1132) (Homo sapiens (Human), UniProt O60674). Nature of the assay: Jak2 inhibition assay (Omnia kinase assay). It is filed as biochemical. The following applies: read-out: Jak2 Enzyme (% inhibition at 1000 nM), Table 1; 1000 nM test compound. The protocol:
The assays described in Examples C, D, E and F for the determination of JAK1, JAK2, JAK3 and Tyk2 kinase activity, respectively, utilized the Omnia® Kinase fluorescence peptide substrate-based technology (Invitrogen). […] The reactions were therefore read at excitation 360 nm and emission was measured at 485 nm every 50 seconds for 45 minutes using a PerkinElmer EnVision Multilabel Plate Reader.
The final buffer conditions for each of the JAK1, JAK2, JAK3 and Tyk2 assays were as follows: 25 mM HEPES, pH 7.4, 10 mM MgCl2, 0.01% Triton X-100 and 1 mM DTT.
Two-μL aliquots of these were transferred to a fresh plate for a ten-fold intermediate dilution with assay buffer. Five-μL aliquots of the diluted compounds were then transferred to 20-μL of assay mixtures described in Examples C, D, E and F for a final concentration of DMSO of 2%. […] For each plate, percent of control (POC) values were calculated for each well according to the following equation:
where Xmax=Average Uninhibited Controls • Xmin=Average Background IC50's were estimated from the POC's using a standard 4-parameter logistic model:
where A=Minimum Y (Bottom Asymptote) • B=Maximum Y (Top Asymptote) • C=EC50 • D=Slope Factor • X=Compound Concentration (nM) • Y=POC
The IC50 is defined as the concentration of inhibitor at which the POC equals 50 for the fitted curve. […]

As to `CC(CO)(CO)NC(=O)c1cnn2ccc(N3CCC[C@@H]3c3cc(F)ccc3F)nc12` [Example 60, (R)-5-(2-(2,5-difluorophenyl)pyrrolidin-1-yl)-N-(1,3-dihydroxy-2-methylpropan-2-yl)pyrazolo[1,5-a]pyrimidine-3-carboxamide], the inhibition at 1 µM was determined as 21.1%.
